ChEMBL document CHEMBL1138340, “Cannabilactones: a novel class of CB2 selective agonists with peripheral analgesic activity” (J Med Chem, 2007)
Calls of active or inactive are those of the source. No cut-off for these calls is given here.

Sequences of proteins named here, by UniProt entry; tags and fusion partners are left off. A change or cut given only in a name is not applied to a line headed by its entry.
UniProt P47936: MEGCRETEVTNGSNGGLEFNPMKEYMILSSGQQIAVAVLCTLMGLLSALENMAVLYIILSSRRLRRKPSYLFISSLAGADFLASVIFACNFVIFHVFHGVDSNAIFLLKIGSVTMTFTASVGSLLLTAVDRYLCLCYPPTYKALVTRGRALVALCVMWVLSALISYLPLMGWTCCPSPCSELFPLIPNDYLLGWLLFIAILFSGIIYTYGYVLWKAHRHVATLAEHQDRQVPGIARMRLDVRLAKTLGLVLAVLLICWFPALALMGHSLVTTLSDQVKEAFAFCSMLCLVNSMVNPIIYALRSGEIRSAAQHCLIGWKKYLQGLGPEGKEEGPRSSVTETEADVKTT

How the values were obtained:
[1] = Selectivity of mouse CB2 receptor over rat CB1 receptor
Outline: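 Ratio of Ki values from [3H]CP55,940 displacement using rat brain synaptosomal membranes (CB1) and mouse spleen membranes (CB2). Both incubated 1 h at 30 °C in TME with 0.1% BSA. IC50 from three independent experiments converted to Ki by Cheng–Prusoff.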

[2] = target: Cannabinoid receptor 2 (Mus musculus) (UniProt P47936); test: Agonist activity at CB2 receptor in mouse spleen membranes assessed as inhibition of forskolin-stimulated cAMP production; type: functional, cell membranes; details: Membrane
[3] = target: Cannabinoid receptor 2 (Mus musculus) (UniProt P47936); test: Agonist activity at CB2 receptor in mouse spleen membranes at 1 uM after 2 hrs by [35S]GTP-gamma-S binding assay; type: functional, cell membranes; details: Membrane
Outline: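 Mouse spleen lysed in a cell disruption bomb, centrifuged at 1000 g then 175000 g, and resuspended in TME with 0.1% BSA. Membranes (24–40 µg) incubated 2 h at 30 °C with test compound at 1 µM, 30 µM GDP and 0.05 nM [35S]GTPγS. Nonspecific binding defined with 10 µM unlabeled GTPγS. Bound label measured after GF/B filtration by scintillation counting. Reported with standard deviations.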

With `CCCCCCC(C)(C)c1cc(O)c2c(c1)oc(=O)c1ccc(C)cc12` the Ratio Ki [1] was 13, the Activity [2] was “Active” and the Activity [3] was 56%.
